Data reported in the NIST ThermoML archive (doi:10.1016/j.fluid.2014.04.003).
± gives the expanded uncertainty stated by the source.

Experiment: Molar enthalpy of transition or fusion
Conditions: Crystal; DSC

Molar enthalpy of transition or fusion: 16.2 ± 0.454 kcal/mol
Compound: CC(C)Cc1ccc([C@H](C)C(=O)O)cc1.CCCCCCCCNC[C@H](O)[C@@H](O)[C@H](O)[C@H](O)CO [S-ibuprofen n-octyl-d-glucamine salt]
